One assay relates to Rec-1 cells. Briefly: Apoptosis induction (Annexin V/7-AAD, Muse flow cytometer). The conditions noted are these: Rec-1, 6 MBq/mL radiolabelled mAb for 18 h, peak time 72 h. The class given is cell-based, human. The method, then: (§1) Cells were harvested at 0, 2 h, 18 h, 1 d, 2 d, 3 d of RIT. At each time point, apoptosis was detected with […] from Merck Millipore (Annexin V Kit with 7-AAD) in the dark for 30 min at room temperature before analysis using Muse® flow cytometer

The next assay deals with Ramos cells. Described as above. To be noted: 6 MBq/mL radiolabelled mAb for 18 h, peak time 72 h. The format is cell-based, human. The procedure:
as §1

As to ^177Lu-cetuximab, the Apoptosis level with Rec-1 cells stood at 60±19%; in the assay on Ramos cells, 27±10%.

The values above are taken from US20210106703A1, “RADIOIMMUNOCONJUGATES IN COMBINATION WITH OTHER DRUGS AS TREATMENT AGAINST NHL” (Nordic Nanovector ASA, priority 2017, published 2021).
